Screening results as filed in PubChem BioAssay.
Nrf2 activator – activates Nrf2 signaling; AREc32 ARE-luciferase reporter (MCF7-derived line), luminescence, 24 h; Potency, µM (doses to about 46.1 µM), inactives show at the top dose activation, actives largely listed as activators; hit rate 0.31% among 410,000; AID 624171; also: potency is read from the fitted curve at half-maximal effect; % of control where 0% means no effect; nearly all actives have a fitted effect of over 65% in size
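ARE activation measured as luciferase luminescence (Steady-Glo, 30 min RT) in AREc32_Fluc cells after 24 hr compound exposure at 37 deg C, 5% CO2; cells seeded overnight at 1000/well in OPTI-MEM, 5% FBS.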
miR-21 reporter – raises the signal of a miR-21 reporter | HeLa miR-21 FLuc reporter, luciferase, 48 h | Potency, µM (highest dose often 38.3 µM), inactives show at the highest dose reporter change, positive = more light | 340,000 tested, under 10 active | AID 2288; active = well fitted rising curve with a large enough effect; inconclusive = small, poorly fitted or top-dose-only effect; inactive = no such curve, though single readings can be large or run the other way;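 note: % of control where 0% means no effect; miR-21 action dims this reporter so a rising signal means less miR-21 action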
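Compounds were titrated across several concentrations (up to approximately 40 uM) and incubated 48 hours with HeLa miR-21-FLuc reporter cells (miR-21 target sequence downstream of FLuc, endogenous miR-21). Readout was firefly luciferase luminescence after lytic detection reagent.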
A549 viability – A549 cytotoxicity, counter-screen for Nrf2 inhibitors | A549 ARE-Fluc cells, CellTiter-Fluor viability, 18-24 h | Potency, µM (titrated, usually from 46 µM), without a hit: top-dose activity change, negative = cytotoxicity, most hits filed as inhibitors | hit rate 0.16% among 390,000 | AID 504648; also: potency is read from the fitted curve at half-maximal effect; % is scaled to controls: 0 for no effect and ±100 for the full control effect
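A549 ARE_Fluc cells in 5% FBS OPTI-MEM were exposed to compounds in concentration-response for 18-24 h at 37 deg C. Viability was read by CellTiter-Fluor fluorescence (Ex 405/Em 525) after 30 min, before the luciferase read.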
GALK inh – inhibitors of human galactokinase. Purified GALK, Kinase-Glo residual ATP luminescence. P51570. AID 1868. hit rate 0.007% among 270,000. Potency, µM (top dose mostly 57.5 µM), for inactives: at the top dose activity change, negative = inhibition, most hits filed as inhibitors; also: potency is read from the fitted curve at half-maximal effect; % is scaled to controls: 0 for no effect and ±100 for the full control effect
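Compounds were pin-transferred into ATP buffer (35 uM final), then GALK plus galactose (5 nM, 100 uM final) was added. After 1 h at room temperature, Kinase-Glo Plus was added and luminescence read after 10 min.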
Nrf2 block – inhibitors of Nrf2 signaling; AID 504444; Potency, µM (titrated, usually from 46 µM), for inactives: at the highest dose activity change, negative = inhibition, hits mostly inhibitors; A549 ARE-Fluc reporter, luciferase luminescence, 18-24 h; hit rate 2.1% among 360,000; also: potency is read from the fitted curve at half-maximal effect; % is scaled to controls: 0 for no effect and ±100 for the full control effect; nearly all actives have a fitted effect of over 60% in size
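A549 ARE_Fluc cells (5000/well, 5% FBS OPTI-MEM) pre-incubated 2 h, then treated with compounds 18-24 h at 37C/5% CO2 in concentration-response. CellTiter-Fluor viability read first; BugLite luciferase luminescence after 15 min at room temperature gives Nrf2 activity.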
PI4K2A block – inhibitors of human PI4K2A; hit rate 0.13% among 420,000; activity change, negative = inhibition, % at 76.9 µM; AID 1346378; Q9BTU6; purified PI4K2A, ADP-Glo luminescence, 1 h; active compounds read low; in the data active = activity change below about -50%; inconclusive = mostly about -30% to -49%;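 also: -100% = wells without enzyme as full effect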
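ADP-Glo luminescence measured ADP generated by PI4K2A enzyme (4 ug/mL before mixing) with 1.2 mM PI substrate (pre-mix) and 300 microM ATP (pre-mix). Tris pH7.5 buffer with MgCl2, Triton X-100; 1 h reaction at ambient temperature.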
An asterisk follows results filed as active; ? = inconclusive; . = no result. Shown are actives, neighbours in structure and some others; about 2.2% of the full set was active somewhere. Unless noted, calls follow the shape of the dose curve; as a rule, active = well fitted curve in the direction sought with a large enough effect; inconclusive = small, poorly fitted or top-dose-only effect, or another doubt; inactive = no such curve, though single readings can be large; an effect the other way counts as inactive or inconclusive.

Screens by letter – A = Nrf2 activator; B = miR-21 reporter; C = A549 viability; D = GALK inh; E = Nrf2 block; F = PI4K2A block
> COCCCNC(=O)C[C@H]1C[C@@]2(C(=O)OC)C(=C[C@H](C(C)C)O[C@@H]2C2CC2)N(CCc2ccc(OC)c(OC)c2)C1=O
  A: .; B: .; C: .; D: .; E: .; F: -1

> O=C(Nc1ccc(C(O)(C(F)(F)F)C(F)(F)F)cc1)c1ccc(F)cc1F
  A: .; B: .; C: .; D: .; E: .; F: 2

> CCCCCC(=O)Nc1cc(S(=O)(=O)O)cc2cc(S(=O)(=O)O)cc(O)c12
  A: 0%; B: .; C: 2%; D: .; E: -13%; F: -59*

> COc1ccc(C(CCN2CCOCC2)c2c(OC)cc(OC)c3ccc(=O)oc23)cc1 (stereo not drawn)
  A: 4%; B: .; C: 15µM*; D: .; E: -4%; F: -3

> COc1ccc(C(CCN2CCOCC2)c2c(OC)cc(OC)c3c(-c4ccccc4)cc(=O)oc23)cc1 (stereo not drawn)
  A: 3%; B: .; C: -5%; D: .; E: -23%; F: 0

> COc1cc(OC)c2ccc(=O)oc2c1C(CCN1CCOCC1)c1ccc2c(c1)OCO2 (stereo not drawn)
  A: 4%; B: .; C: ?; D: .; E: 12%; F: 0

> COc1cc(OC)c2ccc(=O)oc2c1C(CCN1CCCC1)c1ccc2c(c1)OCO2 (stereo not drawn)
  A: 1%; B: -2%; C: 18µM*; D: 0%; E: 11%; F: -3

> O=C(CCC1CCN(Cc2ccccc2)CC1)c1ccc2c(c1)NCCCC2
  A: .; B: .; C: .; D: .; E: .; F: 1

> CCn1c(=O)n(CC(=O)N2CCN(C(C)=O)CC2)c(=O)c2ccccc21
  A: .; B: .; C: .; D: .; E: .; F: 1

> CCOC(=O)C1=C(C)NC(C)=C(C(=O)OCC)C1c1c(F)c(F)c(F)c(F)c1F
  A: .; B: .; C: .; D: .; E: .; F: 0

> CN(C)CCNc1ncnc2ccc(-c3ccc4c(c3)OCO4)cc12
  A: .; B: .; C: 6%; D: .; E: 0%; F: .

> N/C(=N\OC(=O)c1cccc(Cl)c1)c1ccncc1
  A: 11µM*; B: -51%; C: 5%; D: 1%; E: 12%; F: -6

> N/C(=N\OC(=O)c1ccccc1Cl)c1ccncc1
  A: 8.9µM*; B: 19%; C: -1%; D: 7%; E: ?; F: -2

> N/C(=N\OC(=O)c1cccc(Cl)c1)c1cccnc1
  A: ?; B: -44%; C: -2%; D: 0%; E: ?; F: -3

> N/C(=N\OC(=O)c1ccc(Cl)cc1Cl)c1ccncc1
  A: 25%; B: -53%; C: 4%; D: 4%; E: ?; F: -3

> CCCCCCCCC(=O)N/N=C/c1cccc(Br)c1
  A: 0%; B: 0%; C: -12%; D: 0%; E: 21µM*; F: 1

> O=C(c1ccc(Cl)cc1)N1CCN(c2ccc([N+](=O)[O-])c(NCc3cccnc3)c2)CC1
  A: 4%; B: .; C: ?; D: .; E: 26µM*; F: 6

> CCCCCCn1c2c(c(=N)c3c1CCC3)CCC2
  A: 4%; B: ?; C: -6%; D: 3%; E: 15µM*; F: -2

> CCc1ccc(S(=O)(=O)Nc2c(NC3CCCCC3)c3ccccc3oc2=O)cc1
  A: 0%; B: 6%; C: -18%; D: -5%; E: 26µM*; F: -19

> CCc1ccccc1S(=O)(=O)Cc1ccc(C(=O)NCCc2ccc(Cl)cc2)o1
  A: 3%; B: ?; C: ?; D: .; E: 23µM*; F: -3

> O=C(NCc1ccccc1Cl)c1ccc(CS(=O)(=O)c2ccc(Br)cc2)o1
  A: 6%; B: 24%; C: ?; D: .; E: 23µM*; F: -4

> O=C(NCc1ccccc1Cl)c1ccc(CS(=O)(=O)c2ccccc2)o1
  A: 2%; B: -1%; C: 2%; D: 15%; E: 11%; F: 7

> O=C(NCCc1ccc(Cl)cc1)c1ccc(CS(=O)Cc2ccc(Cl)cc2)o1 (stereo not drawn)
  A: 2%; B: 20%; C: ?; D: 1%; E: 26µM*; F: -3

> COc1ccccc1N1CCN(C(=O)c2sc3nc(C)nc(N4CCN(c5ccccn5)CC4)c3c2C)CC1
  A: 2%; B: 26%; C: -23%; D: 1%; E: 15µM*; F: -3

> COc1ccccc1N1CCN(C(=O)c2sc3ncnc(N4CCN(c5ccccn5)CC4)c3c2C)CC1
  A: -1%; B: 24%; C: -8%; D: 4%; E: ?; F: 6

> Cc1nc(N2CCN(C(=O)COc3ccccc3)CC2)c2c(C)c(C)sc2n1
  A: -1%; B: ?; C: -29%; D: 1%; E: 21µM*; F: 5

> Cc1nc(N2CCN(C(=O)COc3ccccc3C)CC2)c2c3c(sc2n1)CCCC3
  A: .; B: .; C: .; D: .; E: .; F: -6

Of the compounds above, 2 have fluorine:
Screens by letter – A = Nrf2 activator; B = miR-21 reporter; C = A549 viability; D = GALK inh; E = Nrf2 block; F = PI4K2A block
> O=C(Nc1ccc(C(O)(C(F)(F)F)C(F)(F)F)cc1)c1ccc(F)cc1F
  A: .; B: .; C: .; D: .; E: .; F: 2

> CCOC(=O)C1=C(C)NC(C)=C(C(=O)OCC)C1c1c(F)c(F)c(F)c(F)c1F
  A: .; B: .; C: .; D: .; E: .; F: 0
